Test [1] deals with Full length WRN protein (aa 2-1432) (Homo sapiens (Human), UniProt Q14191). Briefly: WRN ATPase ADP-Glo biochemical assay, Assay Format B (100 μM ATP). Particulars: read-out: ATPase ADPGlo AC50 (uM)- Assay Format B, 0.25 nM WRN, 100 nM C6.18 ssDNA, 60 min preincubation. (In general: ADP-Glo turns the ADP formed in a reaction into a luminescent signal.)
In test [2] the test system is HT29 cells. Briefly: HT29 (MSS) 7 day viability, CellTiter Glo. Particulars: read-out: HT29 (MSS) Viability 7 Day CTGAbs AC50, 7 days. (In general: Cellular ATP, detected with luciferase, serves as a proxy for viable cell number.)
Test [3] deals with HCT116 cells. Nature of the test: HCT116 (MSI) 7 day viability, CellTiter Glo. To be noted: read-out: HCT116 (MSI) Viability 7 Day Abs AC50, 7 days.

By UniProt entry, the sequences of proteins in these tests, tags left out. Residues count along the entry.
UniProt Q14191, 2-1432 limits assumed: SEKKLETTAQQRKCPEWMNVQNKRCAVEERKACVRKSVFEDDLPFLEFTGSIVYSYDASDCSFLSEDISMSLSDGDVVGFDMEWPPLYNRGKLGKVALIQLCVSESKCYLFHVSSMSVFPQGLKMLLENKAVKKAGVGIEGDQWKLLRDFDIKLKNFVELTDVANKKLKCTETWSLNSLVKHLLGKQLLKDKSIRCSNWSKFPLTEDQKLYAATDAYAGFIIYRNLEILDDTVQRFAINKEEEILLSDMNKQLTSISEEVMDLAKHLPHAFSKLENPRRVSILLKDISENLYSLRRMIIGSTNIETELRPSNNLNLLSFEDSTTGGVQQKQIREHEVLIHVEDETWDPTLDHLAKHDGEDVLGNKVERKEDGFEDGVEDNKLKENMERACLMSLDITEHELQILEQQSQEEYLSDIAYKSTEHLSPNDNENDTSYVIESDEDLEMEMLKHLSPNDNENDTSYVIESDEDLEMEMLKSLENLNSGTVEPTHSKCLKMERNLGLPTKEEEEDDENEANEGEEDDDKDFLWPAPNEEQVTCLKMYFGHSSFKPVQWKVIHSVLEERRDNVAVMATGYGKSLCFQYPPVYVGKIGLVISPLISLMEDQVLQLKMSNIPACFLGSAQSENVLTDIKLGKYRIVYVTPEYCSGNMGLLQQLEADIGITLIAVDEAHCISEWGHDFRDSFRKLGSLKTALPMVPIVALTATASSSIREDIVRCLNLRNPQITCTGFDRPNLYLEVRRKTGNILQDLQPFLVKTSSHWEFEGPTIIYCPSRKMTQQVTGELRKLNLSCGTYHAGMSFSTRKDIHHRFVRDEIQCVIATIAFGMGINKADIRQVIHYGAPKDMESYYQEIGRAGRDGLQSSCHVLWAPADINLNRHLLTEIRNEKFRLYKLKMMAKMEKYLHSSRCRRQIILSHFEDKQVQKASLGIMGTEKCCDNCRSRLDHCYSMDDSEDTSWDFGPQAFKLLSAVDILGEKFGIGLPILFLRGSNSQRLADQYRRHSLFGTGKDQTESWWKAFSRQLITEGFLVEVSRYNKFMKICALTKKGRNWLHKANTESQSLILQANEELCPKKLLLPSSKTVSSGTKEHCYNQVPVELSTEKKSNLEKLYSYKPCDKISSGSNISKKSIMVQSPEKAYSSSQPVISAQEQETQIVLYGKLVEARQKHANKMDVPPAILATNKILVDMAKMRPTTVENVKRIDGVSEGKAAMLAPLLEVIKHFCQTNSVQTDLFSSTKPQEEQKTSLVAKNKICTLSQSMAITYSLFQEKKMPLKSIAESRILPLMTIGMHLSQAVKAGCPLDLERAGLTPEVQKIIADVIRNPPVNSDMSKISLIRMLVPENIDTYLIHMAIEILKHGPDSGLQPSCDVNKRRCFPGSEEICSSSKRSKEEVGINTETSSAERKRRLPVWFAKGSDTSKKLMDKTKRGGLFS

For orientation: AC50 means the concentration giving half of the maximal activity seen.

In the case of `C=CC(=O)N1CCc2nc(-c3ccc(C4CCC4)cc3)n3c2C(C1)N(C(=O)c1cnc(C(F)(F)F)cc1N)CC3` (stereo not drawn), the values for the AC50 in test [1], in test [2] and in test [3] were 0.005 to 0.015 µM, > 3000 nM and 1 to 100 nM, respectively.

The values are drawn from US20250346600A1, “TRICYCLIC DERIVATIVES AND RELATED USES” (MOMA Therapeutics, Inc., priority 2023, published 2025).
